Source: publication PMC8263924 (The Journal of General Physiology, 2021)
Substitutions are numbered along the chain they refer to.

Legend:
Format in all cases: cell-based
Hv1 F150A = target: T1, Hv1 F150A (Homo sapiens, UniProt Q96D96, F150A); assay: Inhibition of proton currents, inside-out patch clamp, Hv1 F150A
T1 sequence (Q96D96 1-273 F150A): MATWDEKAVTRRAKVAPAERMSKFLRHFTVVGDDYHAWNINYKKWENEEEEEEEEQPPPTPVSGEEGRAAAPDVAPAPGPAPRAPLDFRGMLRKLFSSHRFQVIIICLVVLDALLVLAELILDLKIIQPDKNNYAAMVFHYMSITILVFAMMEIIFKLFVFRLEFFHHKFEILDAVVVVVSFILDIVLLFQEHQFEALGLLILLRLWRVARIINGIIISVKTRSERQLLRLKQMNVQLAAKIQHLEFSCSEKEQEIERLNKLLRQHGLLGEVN

Hv1 F149A/F150A = target: T2, Hv1 F149A/F150A (Homo sapiens, UniProt Q96D96, F149A/F150A); assay: Inhibition of proton currents, inside-out patch clamp, Hv1 F149A/F150A
T2 sequence (Q96D96 1-273 F149A/F150A): T1 sequence (Q96D96 1-273 F150A) with F149A

Hv1 F149W/F150A = target: T3, Hv1 F149W/F150A (Homo sapiens, UniProt Q96D96, F149W/F150A); assay: Inhibition of proton currents, inside-out patch clamp, Hv1 F149W/F150A
T3 sequence (Q96D96 1-273 F149W/F150A): T1 sequence (Q96D96 1-273 F150A) with F149W

Hv1 F150A/F182A = target: T4, Hv1 F150A/F182A (Homo sapiens, UniProt Q96D96, F150A/F182A); assay: Inhibition of proton currents, inside-out patch clamp, Hv1 F150A/F182A
T4 sequence (Q96D96 1-273 F150A/F182A): T1 sequence (Q96D96 1-273 F150A) with F182A

Hv1 F150A/F182W = target: T5, Hv1 F150A/F182W (Homo sapiens, UniProt Q96D96, F150A/F182W); assay: Inhibition of proton currents, inside-out patch clamp, Hv1 F150A/F182W
T5 sequence (Q96D96 1-273 F150A/F182W): T1 sequence (Q96D96 1-273 F150A) with F182W

Q: What does the source list for `N=C(N)Nc1nc2ccccc2[nH]1` [2GBI, 2-guanidinobenzimidazole]?
A: IC50 (Hv1 F150A): 118 ± 7 nM; IC50 (Hv1 F149A/F150A): 14 ± 2 nM; IC50 (Hv1 F149W/F150A): 123 ± 6 nM; IC50 (Hv1 F150A/F182A): 826 ± 22 nM; IC50 (Hv1 F150A/F182W): 33 ± 1 nM
